Each structure is given as a SMILES string.

As usually defined, the logP is a log measure of how a compound divides between an organic and an aqueous phase. Take `CC(C)O[PH](=O)OC(C)C`: the logP worked out at 0.45.

The values above are taken from the OPERA property sets (Mansouri et al. 2018).
